Experimental data reported in patent US6310093A (priority 1998, dated 2001).
Like-named read-outs stand apart in the source and are kept apart here.

By UniProt entry, the sequences of proteins in these tests, tags left out. Where a name states a change or a piece, a line headed by the entry shows the natural chain unless it says otherwise.
UniProt D3Z7P3: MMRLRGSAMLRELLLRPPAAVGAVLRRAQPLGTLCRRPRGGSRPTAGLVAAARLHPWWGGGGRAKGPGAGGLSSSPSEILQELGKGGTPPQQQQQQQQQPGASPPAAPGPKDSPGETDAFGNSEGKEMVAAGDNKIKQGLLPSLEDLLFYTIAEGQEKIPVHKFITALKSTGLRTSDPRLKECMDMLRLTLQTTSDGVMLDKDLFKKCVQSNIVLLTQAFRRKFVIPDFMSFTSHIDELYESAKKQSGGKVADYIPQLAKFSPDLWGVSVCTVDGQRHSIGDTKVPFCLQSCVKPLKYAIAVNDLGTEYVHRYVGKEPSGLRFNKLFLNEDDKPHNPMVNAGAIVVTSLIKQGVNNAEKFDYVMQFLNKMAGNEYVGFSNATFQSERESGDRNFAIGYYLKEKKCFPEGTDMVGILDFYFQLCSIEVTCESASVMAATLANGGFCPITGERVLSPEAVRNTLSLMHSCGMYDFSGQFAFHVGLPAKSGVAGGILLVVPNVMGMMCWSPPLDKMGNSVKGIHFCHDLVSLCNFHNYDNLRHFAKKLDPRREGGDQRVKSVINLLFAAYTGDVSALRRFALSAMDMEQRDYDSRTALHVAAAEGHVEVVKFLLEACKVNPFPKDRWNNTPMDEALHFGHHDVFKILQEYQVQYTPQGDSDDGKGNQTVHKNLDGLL

Tests used:
[1] = target: glutaminase in live (intact) neurons (Mus musculus, UniProt D3Z7P3); details: then Gln
[2] = test system: pure neuronal cultures (cortical neurons) exposed to glutamine; details: 30 μM, 2 mM glutamine

p-(chloromercuri)phenyl sulfonic acid
glutamate production after neuronal death ([1]; 1h 30 μM pCMPS then NMDA): 0.75 ± 0.07 μM Glu/min
glutamate production after neuronal death ([1]; .25h 30 μM pCMPS then NMDA): 0.88 ± 0.13 μM Glu/min
glutamine hydrolysis / glutamate production by healthy neurons exposed to glutamine (in words) [2]: delayed hydrolysis of glutamine was prevented
glutamine hydrolysis / glutamate production by healthy neurons exposed to glutamine (in words) ([2]; listed as PCMPS): prevented the exponentially increasing rate of glutamate production
